Data as given in patent US12692290B2, “Modulators of tight junction permeability” (The University of Bath, priority 2020, dated 2026).

Test: In vivo gentamicin transport after intraluminal injection (ILI) into rat jejunum
Details: 10 mg/kg gentamicin without PIP peptide
Experimental: Male Wistar rats weighing 250-300 g were used in in vivo experiments. Rats were bred in house at the University of Bath. Rats were kept on a 12/12-hour light dark cycle. Experiments were conducted at the midpoint of the light cycle±3 hours. Rats had ad lib access to food and water throughout housing up to the beginning of experimental procedures. Following experimental procedures rats were euthanised by exposure to increasing concentration of CO2.
Rats were anaethetised using 5% inhaled isoflurane. Once anaesthesia was achieved, rats were transferred to a nose cone to maintain anaesthesia. A 2-cm incision was used to gain access to the abdominal cavity. […]
Blood samples (100 μL) were collected from either the tail vein or the portal vein into 1.5 mL Eppendorf tubes and allowed to clot at room temperature for 20 min. […] Samples were centrifuged at 2000×g for 10 min, with the supernatant being collected and analysed by LCMS/MS.
Rats were administered 10 mg/kg gentamicin by ILI with or without 20 mM of a PIP250 series peptide. Blood samples collected from 15 to 90 min post-IL were analysed for gentamicin. […] Blood samples were collected and analysed as previously described.
Samples were analysed using an Agilent 6545 quadrupole time-of-flight LC/MS instrument. 10 μL of gentamicin samples were injected into a C18 reversed-phase HPLC column and detected at 202 nm. […]

Substance: Gentamicin
- gentamicin serum levels after ILI of gentamicin alone: did not results in detectable serum levels
